Results published in the OPERA property sets (Mansouri et al. 2018).

CC(C)O[PH](=O)OC(C)C
logP: 0.45
